Consider two molecules from ChEMBL document CHEMBL3044733, “Synthesis of novel phosphorothioates and phosphorodithioates and their differential inhibition of cholinesterases” (2009).

A short description of this assay: Selectivity ratio of IC50 for horse serum butyrylcholinesterase to IC50 for electric eel acetylcholinesterase.

With `CCOP(=O)(OCC)SCCN1C(=O)c2ccccc2C1=O`, the Ratio IC50 was 5.4.
For `CCOP(=O)(OCC)SCc1ccc2ccccc2n1`, the Ratio IC50 came out at 15.7.
